Cneo AK release: Cryptococcus neoformans cell lysis inducers, primary screen, AK release luminescence, single concentration | C. neoformans lysis, adenylate kinase release luminescence, 4 h; normalised: neutral wells 0, clomiphene wells 100 | 360,000 tested, 0.2% active | lysis activity, % at 15 µM;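 active = mean lysis activity across replicates of at least 80%, whatever share of replicates individually reach that level; inactive = mean lysis activity below 80%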
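read-out = cell lysis signal | test system = log-phase Cryptococcus neoformans yeast cells | input = cells at 5 × 10^6 per mL | medium = fresh YPD growth medium | signal = luminescent adenylate kinase detection reagent | timing = 4 h at 37 °C static, read 1 h later | dosing = single dose | controls = Clomiphene as positive lysis control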
Statin myotox sup: suppressors of statin myotoxicity in C2C12 myotubes, primary screen, cell-based, single point, plate reader | C2C12 myotubes + simvastatin, ATP luminescence, 48 h; scaled: DMSO 0, geranylgeraniol control 100 | rescue of ATP level, % at 7.49 µM | 330,000 tested, 0.78% active | AID 602340, 2012;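 active = mean ATP rescue above about 67%, or every replicate alone reaching that limit, limit read from the data, passing the limit was not always enough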;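 also: myotubes were challenged with 10 µM simvastatin during compound exposure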
Rtt109 Vps75: inhibitors of C. albicans Rtt109/Vps75 HAT, primary screen, biochemical, ThioGlo CoA-SH fluorescence, plate reader; Histone acetyltransferase RTT109 (Candida albicans (strain SC5314 / ATCC MYA-2876)), …; purified Rtt109/Vps75, 4 h; inhibition, % at 34.9 µM; 330,000 tested, 0.16% active; AID 540336, 2011;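 active = inhibition of at least 50% in every replicate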
Yeast UUG start-1: modulators of start codon recognition fidelity in yeast; S. cerevisiae UUG-firefly luciferase reporter, luminescence/redox ratio; AID 602363; 350,000 tested, 0.13% active; activity score, % at 18.7 µM;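 active = replicate mean at a twofold rise or more, about +100% in these data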;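 also: firefly luciferase made from a UUG start codon reports start codon fidelity; reporter light over untreated wells divided by growth signal over untreated wells; some hits fall short of that in this replicate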
CDK5 inh: inhibitors of human CDK5/p35 kinase, primary screen, biochemical, single concentration; Cyclin-dependent kinase 5 (Homo sapiens) + Cyclin-dependent kinase 5 activator 1 (Homo …; 330,000 tested, 0.01% active; inhibition, % at 10 µM; Recombinant CDK5/p35, ADP-Glo luminescence, 60 min;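 active = highest replicate inhibition of at least 50% and at least 75% of replicates reaching 50%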;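 also: plate controls were DMSO neutral control for no effect and GW8510 at 10 µM for full effect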
Yeast UUG start-2: enhancers of UUG start codon usage in yeast, dose response, S. cerevisiae, UUG firefly luciferase, cherry-pick, set 2; shares compounds with Yeast UUG start-1; luminescence, 4 h; 100% means double the DMSO signal; activation, % at 38 µM; 540 tested, under 10 active;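 active = signal increase whose fitted curve reaches an absolute level of 40 at a concentration under 10 µM; inactive = activity opposite to the expected increase, or the rest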
Active calls of the source: *; i = inactive; . = not tested or not shown; ! = repeats disagree. Compounds with a hit are over-represented: about 1% of the library has one in this group of screens.

Field names: A = Cneo AK release; B = Statin myotox sup; C = Rtt109 Vps75; D = Yeast UUG start-1; E = CDK5 inh; F = Yeast UUG start-2
> CC(=O)c1c(C)[nH]c(C)c1C(C)=O
  A: 0 | B: 8 | C: -5 | D: -1 | E: -1 | F: .
> CCc1[nH]c(C)c(C(C)=O)c1C
  A: 9 | B: -15 | C: 13 | D: 416* | E: -2 | F: 4
> CCOc1ccccc1Nc1nc2ccccc2n1C(C)C
  A: 1 | B: -17 | C: 1 | D: -4 | E: 1 | F: 4
> C[C@@H]1CN([C@@H](C)CO)C(=O)c2cc(NS(=O)(=O)c3ccccc3)ccc2O[C@H]1CN(C)S(C)(=O)=O
  A: 3 | B: -29 | C: . | D: -10 | E: . | F: .
> CCC(=O)Nc1ccc2c(c1)OC[C@H](C)N(C(=O)CC)C[C@@H](C)[C@H](OC)CN(C)C2=O
  A: . | B: 7 | C: . | D: . | E: . | F: .
> Cc1noc(C)c1NC(=O)Nc1ccc2c(c1)C(=O)N([C@H](C)CO)C[C@H](C)[C@@H](CN(C)C(=O)Nc1cccc3ccccc13)O2
  A: 1 | B: 64 | C: . | D: -4 | E: . | F: .
> CO[C@@H]1CN(C)C(=O)c2cc(NC(=O)Nc3c(C)noc3C)ccc2OC[C@H](C)N(CCC(F)(F)F)C[C@H]1C
  A: -2 | B: 8 | C: . | D: . | E: . | F: .
> CC1CCN(CCCNC(=O)c2cc3c(Cl)nc4ccccc4c3s2)CC1
  A: 5 | B: 10 | C: 10 | D: 8 | E: -1 | F: .
> O=C(NCCCN1CCCC1)c1cc2c(Cl)nc3ccccc3c2s1
  A: -3 | B: -13 | C: . | D: 486* | E: -1 | F: 5
> CCn1c(CCNC(=O)c2ccc(OC)cc2)nnc1SCC(=O)Nc1ccccc1F
  A: 1 | B: 1 | C: -4 | D: 316* | E: -1 | F: 1
> CCC[N+]1(CC#CC(O)(c2ccccc2)C2CCCCC2)CCCCC1 (configuration not stated)
  A: . | B: . | C: -1 | D: . | E: 0 | F: .
> NC(=O)C[N+]1(CC#CC(O)(c2ccccc2)c2ccccc2)CCCC1
  A: . | B: 1 | C: 2 | D: . | E: -1 | F: -4
> O=C(NCC1CCCCC1)[C@@H]1N[C@@H]2c3ccc(C4=CCCCC4)c(=O)n3C[C@@H]2[C@H]1CO
  A: 1 | B: 0 | C: . | D: 6 | E: . | F: .
> C[C@@H]1CN([C@@H](C)CO)C(=O)Cc2cc(NC(=O)C3CCCCC3)ccc2O[C@H]1CN(C)C(=O)NC1CCCCC1
  A: -2 | B: -7 | C: . | D: 47* | E: . | F: i
> N#C[C@H]1[C@H](c2ccc(C3=CCCC3)cc2)[C@@H](CO)N1C(=O)NC1CCCC1
  A: -5 | B: 16 | C: . | D: 5 | E: . | F: .

Among those listed so far, two contain a thiophene ring, fused or not:
Field names: A = Cneo AK release; B = Statin myotox sup; C = Rtt109 Vps75; D = Yeast UUG start-1; E = CDK5 inh; F = Yeast UUG start-2
> CC1CCN(CCCNC(=O)c2cc3c(Cl)nc4ccccc4c3s2)CC1
  A: 5 | B: 10 | C: 10 | D: 8 | E: -1 | F: .
> O=C(NCCCN1CCCC1)c1cc2c(Cl)nc3ccccc3c2s1
  A: -3 | B: -13 | C: . | D: 486* | E: -1 | F: 5

Remaining list, next part.
Field names: A = Cneo AK release; B = Statin myotox sup; C = Rtt109 Vps75; D = Yeast UUG start-1; E = CDK5 inh; F = Yeast UUG start-2
> O=C(C[C@H]1CC[C@H](NS(=O)(=O)c2ccccc2)[C@@H](CO)O1)N1CCc2ccccc2C1
  A: -3 | B: 1 | C: . | D: -7 | E: . | F: .
> CNC[C@H]1Oc2cc(C#Cc3ccncc3)ccc2S(=O)(=O)N([C@H](C)CO)C[C@H]1C
  A: -1 | B: -18 | C: . | D: 129* | E: . | F: i
> C[C@H](CO)N1C[C@H](C)[C@H](CN(C)C(=O)C2CCOCC2)Oc2cc(C#Cc3ccncc3)ccc2S1(=O)=O
  A: 7 | B: -4 | C: . | D: 191* | E: . | F: i
> C[C@@H]1CN([C@@H](C)CO)C(=O)c2cccc(NC(=O)Nc3ccc(C(F)(F)F)cc3)c2O[C@H]1CN(C)C(=O)Nc1ccc(C(F)(F)F)cc1
  A: -1 | B: -21 | C: . | D: -16 | E: . | F: .
> C[C@@H]1CN([C@H](C)CO)C(=O)c2cc(NS(=O)(=O)c3cccs3)ccc2O[C@H]1CN(C)Cc1ccc(C(F)(F)F)cc1
  A: -6 | B: -19 | C: . | D: -6 | E: . | F: .
> COc1cccc(C#Cc2cnc3c(c2)C(=O)N([C@H](C)CO)C[C@H](C)[C@H](CN(C)C(=O)C2CCOCC2)O3)c1
  A: 1 | B: 17 | C: . | D: 125* | E: . | F: i
> Cc1noc(C)c1NC(=O)N(C)C[C@H]1Oc2ncc(C#CC3CCCCC3)cc2C(=O)N([C@H](C)CO)C[C@@H]1C
  A: -1 | B: 1 | C: . | D: 12* | E: . | F: i
> COc1cccc(C#Cc2cnc3c(c2)C(=O)N([C@@H](C)CO)C[C@H](C)[C@@H](CN(C)C(=O)C2CCOCC2)O3)c1
  A: -2 | B: 16 | C: . | D: 3 | E: . | F: .
> C[C@@H]1CN([C@@H](C)CO)C(=O)c2cc(C#CCc3ccccc3)cnc2O[C@H]1CN(C)CC1CCCC1
  A: 7 | B: -32 | C: . | D: 167* | E: . | F: i
> C[C@@H]1CN([C@H](C)CO)C(=O)c2cc(C#CC3CCCCC3)cnc2O[C@H]1CN(C)Cc1cccnc1
  A: 4 | B: -1 | C: . | D: 162*! | E: . | F: i
> C[C@@H]1CN([C@H](C)CO)C(=O)c2cc(C#CC3CCCCC3)cnc2O[C@@H]1CN(C)Cc1cccnc1
  A: 0 | B: -3 | C: . | D: 11 | E: . | F: .
> Cc1noc(C)c1NC(=O)N(C)C[C@@H]1Oc2ncc(C#CC3CCCCC3)cc2C(=O)N([C@H](C)CO)C[C@H]1C
  A: -3 | B: 7 | C: . | D: -13 | E: . | F: .
> C[C@H]1CN([C@@H](C)CO)C(=O)c2cc(N(C)C)ccc2O[C@@H]1CN(C)S(=O)(=O)c1cn(C)cn1
  A: 1 | B: -32 | C: . | D: -3 | E: . | F: .
> O=C(C[C@H]1CC[C@H]2[C@@H](COC[C@@H](O)CN2C(=O)c2ccccc2F)O1)NCc1ccc(-c2ccccc2)cc1
  A: -2 | B: -4 | C: . | D: . | E: . | F: .
> CC(=O)N(C)C[C@@H]1Oc2cc(C#CC3CC3)ccc2S(=O)(=O)N([C@@H](C)CO)C[C@H]1C
  A: . | B: 8 | C: . | D: -4 | E: . | F: .
> CC=Cc1ccc2n(c1=O)C[C@@H]1[C@@H](CO)[C@H](C(=O)N[C@@H](C)c3ccccc3)N(C)[C@H]21 (mixture of isomers)
  A: 2 | B: 1 | C: . | D: . | E: . | F: .
> Cc1noc(C)c1S(=O)(=O)Nc1ccc2c(c1)C(=O)N([C@@H](C)CO)C[C@@H](C)[C@@H](CN(C)C(=O)Nc1ccc(F)cc1)OCCCC[C@@H](C)O2
  A: -1 | B: . | C: . | D: 10 | E: . | F: .
> C[C@H]1CN([C@@H](C)CO)C(=O)c2cc(C#CCC3CCCC3)cnc2O[C@@H]1CN(C)C(=O)CC1CC1
  A: -1 | B: -4 | C: . | D: 121*! | E: . | F: i
> O=C(C[C@@H]1C[C@@H]2c3cc(NC(=O)Nc4ccccc4)ccc3O[C@@H]2[C@@H](CO)O1)NCc1ccccc1
  A: 0 | B: 0 | C: . | D: . | E: . | F: .
> C[C@H](O)C#Cc1cnc2c(c1)C(=O)N([C@H](C)CO)C[C@H](C)[C@@H](CN(C)CC1CCOCC1)O2
  A: 8 | B: 2 | C: . | D: . | E: . | F: .
> O=C(COC(=O)c1cc2ccccc2o1)c1ccccc1
  A: -1 | B: 6 | C: -11 | D: -4 | E: 0 | F: 10
> CC(C)CNC(=O)c1cccc(NC(=O)Cc2ccc(Cl)cc2)c1
  A: 1 | B: -18 | C: -2 | D: 249* | E: -1 | F: -3
> CCN(CC)CCNC(=O)Cn1nc(Cc2cccnc2)c2ccccc2c1=O
  A: -2 | B: 15 | C: -8 | D: -8 | E: -2 | F: .
> CCN(CC)CCNC(=O)C(C)c1nn(C)c(=O)c2ccccc12 (configuration not stated)
  A: 2 | B: 8 | C: -4 | D: 5 | E: 0 | F: -5
> Cn1nc(C(=O)NCc2ccccc2)c2ccccc2c1=O
  A: 7 | B: 19 | C: 8 | D: -12 | E: 2 | F: .
> CCCCn1nc(CC(=O)NCCN(CC)CC)c2ccccc2c1=O
  A: . | B: 10 | C: -1 | D: . | E: 1 | F: -6
